{
  "sequences": {"note": "Protein sequences, listed by entry. Tags and fused reporters are not part of them. Lines headed by an entry give the natural chain unless they say otherwise; changes in a name come on top.", "UniProt Q13464": "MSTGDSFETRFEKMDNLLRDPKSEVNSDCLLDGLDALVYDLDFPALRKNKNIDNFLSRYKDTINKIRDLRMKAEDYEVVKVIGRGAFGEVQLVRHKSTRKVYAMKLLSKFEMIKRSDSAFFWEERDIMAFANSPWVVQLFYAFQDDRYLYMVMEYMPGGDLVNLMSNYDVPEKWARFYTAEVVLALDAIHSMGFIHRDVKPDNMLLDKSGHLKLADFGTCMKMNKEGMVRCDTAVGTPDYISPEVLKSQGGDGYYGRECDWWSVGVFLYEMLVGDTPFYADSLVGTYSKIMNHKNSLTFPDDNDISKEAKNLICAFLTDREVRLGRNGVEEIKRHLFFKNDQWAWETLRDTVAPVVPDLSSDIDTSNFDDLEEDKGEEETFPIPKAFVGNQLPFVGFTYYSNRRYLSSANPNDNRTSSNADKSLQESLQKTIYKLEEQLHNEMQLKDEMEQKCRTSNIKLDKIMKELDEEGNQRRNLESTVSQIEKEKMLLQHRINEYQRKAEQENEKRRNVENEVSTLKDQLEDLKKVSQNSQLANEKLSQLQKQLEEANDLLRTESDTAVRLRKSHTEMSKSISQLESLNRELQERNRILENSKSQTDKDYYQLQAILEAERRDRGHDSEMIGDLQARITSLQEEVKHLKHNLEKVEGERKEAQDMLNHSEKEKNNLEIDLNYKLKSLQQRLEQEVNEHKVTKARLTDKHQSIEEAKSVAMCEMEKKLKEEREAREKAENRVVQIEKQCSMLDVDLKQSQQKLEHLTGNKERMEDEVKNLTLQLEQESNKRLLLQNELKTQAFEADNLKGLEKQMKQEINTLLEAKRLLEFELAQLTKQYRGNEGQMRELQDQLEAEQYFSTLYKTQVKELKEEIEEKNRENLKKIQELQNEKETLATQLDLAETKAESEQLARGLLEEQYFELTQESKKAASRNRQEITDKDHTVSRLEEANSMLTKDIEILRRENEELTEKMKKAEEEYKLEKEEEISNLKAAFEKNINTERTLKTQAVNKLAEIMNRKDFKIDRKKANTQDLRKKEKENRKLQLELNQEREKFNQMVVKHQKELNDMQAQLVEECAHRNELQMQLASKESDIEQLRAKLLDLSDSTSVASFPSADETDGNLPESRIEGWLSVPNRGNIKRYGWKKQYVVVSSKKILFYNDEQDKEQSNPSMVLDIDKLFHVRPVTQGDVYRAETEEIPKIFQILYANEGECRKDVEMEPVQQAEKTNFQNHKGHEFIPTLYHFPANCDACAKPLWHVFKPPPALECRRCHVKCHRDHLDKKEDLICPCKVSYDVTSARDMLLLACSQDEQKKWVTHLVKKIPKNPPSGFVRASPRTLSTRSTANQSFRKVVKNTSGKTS"},
  "source": "patent US9409868B2",
  "about": "“Inhibitors of rho associated protein kinases (ROCK) and methods of use” (H. LEE MOFFITT CANCER CENTER AND RESEARCH INSTITUTE, INC., priority 2012, dated 2016)",
  "key": {"ROCK2": {"target": "ROCK2 (Homo sapiens (Human), UniProt O75116)", "experiment": "Z-Lyte FRET kinase assay, ROCK2", "type": "biochemical", "conditions": "for inhibition at 400 µM: compound concentration at 400 μM; for fold decrease of ROCK 2 inhibitory activity: relative to nicotinamide 3", "text": "(§1) Kinase Assay. A robust FRET-based, enzyme-coupled assay format, Z-Lyte® Kinase Assay Ser/[…] Peptide Kit (Invitrogen, cat. PV3793), was employed in this study to monitor inhibition of ROCK1 (Invitrogen, cat. PV3691) and ROCK2 (Invitrogen, cat. PV3759) enzyme activities. […] The substrate contains both coumarin and fluorescein and only uncleaved […] substrate will undergo FRET. […] A known inhibitor, Y-27632 (Tocris Bioscience, cat. 1254), is used as a control compound."}, "ROCK1": {"target": "ROCK1 (Homo sapiens (Human), UniProt Q13464)", "experiment": "Z-Lyte FRET kinase assay, ROCK1", "type": "biochemical", "conditions": "for inhibition at 400 µM: compound concentration at 400 μM", "text": "as §1"}},
  "note": "pIC50: −log10 of the molar value.",
  "data": [
    {"compound": "O=C(Nc1ccncc1)c1ccccn1", "note": "[Compound 1, N-(Pyridin-4-yl)picolinamide]", "values": [
      {"measurement": "inhibition at 400 µM", "setting": "ROCK2", "result": "30 to 40", "unit": "%"},
      {"measurement": "inhibition at 400 µM", "setting": "ROCK1", "result": "30 to 40", "unit": "%"}
    ]},
    {"compound": "O=C(Nc1ccncc1)c1ccncc1", "note": "[Compound 2, N-(pyridin-4-yl)isonicotinamide]", "values": [
      {"measurement": "inhibition at 400 µM", "setting": "ROCK2", "result": "30 to 40", "unit": "%"},
      {"measurement": "inhibition at 400 µM", "setting": "ROCK1", "result": "30 to 40", "unit": "%"}
    ]},
    {"compound": "O=C(Nc1ccncc1)c1cccnc1", "note": "[Compound 3, N-(Pyridin-4-yl)nicotinamide]", "values": [
      {"measurement": "LE (Ligand Efficiency), ROCK2", "setting": "ROCK2", "result": 0.39},
      {"measurement": "LE (Ligand Efficiency), ROCK1", "setting": "ROCK1", "result": 0.37}
    ]},
    {"compound": "O=C(Nc1ccncc1)c1cnccc1Cl", "note": "[Compound 4, 4-Chloro-N-(pyridin-4-yl)nicotinamide]", "values": [
      {"measurement": "LE (Ligand Efficiency), ROCK2", "setting": "ROCK2", "result": 0.31},
      {"measurement": "fold decrease of ROCK 2 inhibitory activity", "setting": "ROCK2", "result": 4, "unit": "fold"},
      {"measurement": "LE (Ligand Efficiency), ROCK1", "setting": "ROCK1", "result": 0.35}
    ]},
    {"compound": "O=C(Nc1ccncc1)c1cncc(Br)c1", "note": "[Compound 5, 5-Bromo-N-(pyridin-4-yl)nicotinamide]", "values": [
      {"measurement": "LE (Ligand Efficiency), ROCK2", "setting": "ROCK2", "result": 0.29},
      {"measurement": "fold decrease of ROCK 2 inhibitory activity", "setting": "ROCK2", "result": "up to six fold"},
      {"measurement": "LE (Ligand Efficiency), ROCK1", "setting": "ROCK1", "result": 0.30},
      {"measurement": "fold decrease of ROCK 1 inhibitory activity", "setting": "ROCK1; relative to nicotinamide 3", "result": "up to six fold"}
    ]},
    {"compound": "CN(CCc1ccccc1)C(=O)Nc1ccc2[nH]ncc2c1", "note": "[Compound 13, 3-(1H-Indazol-5-yl)-1-methyl-1-phenethylurea]", "values": [
      {"measurement": "LE (Ligand Efficiency), ROCK2", "setting": "ROCK2", "result": 0.32},
      {"measurement": "LE (Ligand Efficiency), ROCK1", "setting": "ROCK1", "result": 0.27}
    ]},
    {"compound": "O=C(Nc1ccc2[nH]ncc2c1)N[C@H](CO)Cc1ccccc1", "note": "[Compound 14, (S)-1-(1-Hydroxy-3-phenylpropan-2-yl)-3-(1H-indazol-5-yl)urea]", "values": [
      {"measurement": "LE (Ligand Efficiency), ROCK2", "setting": "ROCK2", "result": 0.33},
      {"measurement": "LE (Ligand Efficiency), ROCK1", "setting": "ROCK1", "result": 0.31}
    ]},
    {"compound": "COc1ccc(CCNC(=O)Nc2ccc3[nH]ncc3c2)cc1", "note": "[Compound 16, 1-(1H-Indazol-5-yl)-3-(4-methoxyphenethyl)urea]", "values": [
      {"measurement": "LE (Ligand Efficiency), ROCK2", "setting": "ROCK2", "result": 0.36},
      {"measurement": "LE (Ligand Efficiency), ROCK1", "setting": "ROCK1", "result": 0.33}
    ]},
    {"compound": "O=C(NCCc1ccccc1)Nc1ccc2[nH]ncc2c1", "note": "[Compound 18, 1-(1H-Indazol-5-yl)-3-phenethylurea]", "values": [
      {"measurement": "pIC50", "setting": "ROCK2; triplicate experiments", "result": 6.17},
      {"measurement": "pIC50", "setting": "ROCK1; triplicate experiments", "result": 6.19}
    ]},
    {"compound": "O=C(NCc1ccccc1)Nc1ccc(-c2ccncc2)cc1", "note": "[Compound 22, 1-Benzyl-3-(4-(pyridin-4-yl)phenyl)urea]", "values": [
      {"measurement": "LE (Ligand Efficiency), ROCK2", "setting": "ROCK2", "result": 0.39},
      {"measurement": "LE (Ligand Efficiency), ROCK1", "setting": "ROCK1", "result": 0.35}
    ]},
    {"compound": "O=C(NCCc1ccccc1)Nc1ccc(-c2ccncc2)cc1", "note": "[Compound 25, 1-Phenethyl-3-(4-(pyridin-4-yl)phenyl)urea]", "values": [
      {"measurement": "LE (Ligand Efficiency), ROCK2", "setting": "ROCK2", "result": 0.27},
      {"measurement": "LE (Ligand Efficiency), ROCK1", "setting": "ROCK1", "result": 0.32},
      {"measurement": "selectivity for ROCK 1 over ROCK 2", "setting": "ROCK1", "result": "Eight-fold"}
    ]},
    {"compound": "O=C(Nc1ccc(-c2ccncc2)cc1)N[C@@H](CO)Cc1ccccc1", "note": "[Compound 26, (R)-1-(1-Hydroxy-3-phenylpropan-2-yl)-3-(4-(pyridin-4-yl)phenyl)urea]", "values": [
      {"measurement": "LE (Ligand Efficiency), ROCK2", "setting": "ROCK2", "result": 0.28},
      {"measurement": "fold more active towards ROCK 2", "setting": "ROCK2; 26 (R) versus 27 (S)", "result": "six fold"},
      {"measurement": "LE (Ligand Efficiency), ROCK1", "setting": "ROCK1", "result": 0.31},
      {"measurement": "selectivity for ROCK 1 over ROCK 2", "setting": "ROCK1", "result": "four-fold"},
      {"measurement": "fold more inhibitory activity towards ROCK 1", "setting": "ROCK1; 26 (R) versus 27 (S)", "result": 22, "unit": "fold"}
    ]},
    {"compound": "O=C(Nc1ccc(-c2ccncc2)cc1)N[C@H](CO)Cc1ccccc1", "note": "[Compound 27, (S)-1-(1-Hydroxy-3-phenylpropan-2-yl)-3-(4-(pyridin-4-yl)phenyl)urea]", "values": [
      {"measurement": "LE (Ligand Efficiency), ROCK2", "setting": "ROCK2", "result": 0.23},
      {"measurement": "LE (Ligand Efficiency), ROCK1", "setting": "ROCK1", "result": 0.24}
    ]}
  ]
}
